The values below come from article PMC3994145.

Protein sequences, listed by entry. Tags and fused reporters are not part of them. Residues count along the entry.
UniProt P12318, 34-317: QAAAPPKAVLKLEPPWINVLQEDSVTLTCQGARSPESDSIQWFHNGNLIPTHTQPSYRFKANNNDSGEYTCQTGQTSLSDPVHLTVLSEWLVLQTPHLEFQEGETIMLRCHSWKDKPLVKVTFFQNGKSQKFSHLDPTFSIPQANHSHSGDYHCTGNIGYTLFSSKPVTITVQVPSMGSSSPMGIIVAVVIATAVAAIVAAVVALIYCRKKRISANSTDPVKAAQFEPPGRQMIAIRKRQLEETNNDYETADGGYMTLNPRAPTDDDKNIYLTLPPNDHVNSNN

For the experiment, the target named is human FcγRIIa/131H on Jurkat cells (human) (UniProt P12318).

Take “rituximab (wild-type, anti-CD20 mAb, IgG1) (antibody)”: the EC50 of luciferase activity of Jurkat/FcγRIIa/NFAT-Luc cells co-cultured with Daudi cells and serially diluted mAb amounted to 0.094 mg/L.
